The numbers were not newly measured in PubChem BioAssay AID1811 (Shanghai Institute of Organic Chemistry, 2009), which cites them from elsewhere.

Some of the results follow. Calls of active or inactive are those of the source. Unless stated, no cut-off for active and inactive is given here.

This series has as its system 1PWP A. The experiment in a line: PubChem AID 1811. The note with it: PDB complex binding affinities from literature.

For the molecule `Cc1cc(N)c2cc(NC(=O)Nc3ccc4nc(C)cc(N)c4c3)ccc2n1`, the outcome was active.
